Each structure is given as a SMILES string.

The nature of this data set: Ksol, ability to solubilise iron(III) hydroxide. The class given is physicochemical. Particulars: must be >0 to solubilise iron(III) hydroxide. An excerpt: In order to solubilise iron(III) hydroxide, log Ksol must be greater than 0.

On to `Cc1occc(=O)c1O` [maltol, 3-hydroxy-2-methyl-4-pyrone], for which the “log Ksol” value was 8.0.

For the origin of these results see patent US5028411A, “Pharmaceutical compositions” (priority 1984, dated 1991).
